# pIC50: −log10 of the molar value.
# Test: Inhibition of Trypanosoma brucei NMT by scintillation proximity assay
smiles,measurement,value
COc1cc(C)c(S(=O)(=O)Nc2c(C)nn(C)c2C)c(C)c1C,pIC50,5.72

# Reference: ChEMBL document CHEMBL5634069, “Exploring N-myristoyltransferase as a promising drug target against parasitic neglected tropical diseases” (Eur J Med Chem, 2023)
